ChEMBL document CHEMBL1131645, “Synthesis and activity studies of N-[omega-N'-(adamant-1'-yl)aminoalkyl]- 2-(4'-dimethylaminophenyl)acetamides: in the search of selective inhibitors for the different molecular forms of acetylcholinesterase” (Bioorg Med Chem Lett, 1998)

Experiments:
Acetylcholinesterase [1] = molecular target: T1, Acetylcholinesterase (Bos taurus, UniProt P23795)
T1 sequence (P23795 whole entry): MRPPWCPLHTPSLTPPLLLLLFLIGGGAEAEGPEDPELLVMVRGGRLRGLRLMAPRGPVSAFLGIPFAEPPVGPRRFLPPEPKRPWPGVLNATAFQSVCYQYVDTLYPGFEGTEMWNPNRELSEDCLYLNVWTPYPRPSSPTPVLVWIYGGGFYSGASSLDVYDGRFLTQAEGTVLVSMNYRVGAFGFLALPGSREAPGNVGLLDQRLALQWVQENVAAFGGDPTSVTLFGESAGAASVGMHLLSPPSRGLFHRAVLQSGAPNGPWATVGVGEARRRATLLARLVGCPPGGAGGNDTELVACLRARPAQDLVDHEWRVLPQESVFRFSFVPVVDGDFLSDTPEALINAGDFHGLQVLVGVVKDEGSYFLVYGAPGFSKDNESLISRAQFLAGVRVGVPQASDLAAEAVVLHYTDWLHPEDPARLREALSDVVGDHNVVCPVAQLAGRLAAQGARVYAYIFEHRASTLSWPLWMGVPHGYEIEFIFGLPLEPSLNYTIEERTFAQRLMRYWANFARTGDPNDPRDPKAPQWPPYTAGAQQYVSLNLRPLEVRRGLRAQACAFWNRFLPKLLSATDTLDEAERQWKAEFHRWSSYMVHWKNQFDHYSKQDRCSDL

Acetylcholinesterase [2] = molecular target: T1, Acetylcholinesterase; remark: listed apart in the source

Which results are given for CNC(=O)Oc1ccc2c(c1)[C@]1(C)CCN(C)[C@@H]1N2C [PHYSOSTIGMINE]?
IC50 (Acetylcholinesterase [1]): 146 nM; IC50 (Acetylcholinesterase [2]): 123 nM
